These results are taken from patent publication US20230285481A1, “TREATMENT OF CANCER HARBORING MUTATIONS IN THE TP53 GENE AND/OR POST-TRANSLATIONAL MODIFICATIONS IN THE P53 PROTEIN WITH PARVOVIRUSES” (UNIVERSIDAD AUTÓNOMA DE MADRID, priority 2018, published 2023).

For the assay, the system named is U87-MG glioblastoma cells. Kind of assay: MVM infection markers (NS1, Pp53-S15, vDNA) by IF-confocal, Southern and western blot in U87-MG. It counts as cell-based, human. To be noted: uninfected U87-MG cells. The method, then: Immunofluorescence analyses were performed on neurospheres of hGSCs (human glioblastoma stem cells) and established adherent cell lines as follows: • Neurosphere staining. The cell spheres were fixed for 30 minutes with paraformaldehyde (PFA) 4%, then permeabilized for 10 minutes at room temperature with 0.1% Triton X-100 (Merck) in PBS, and blocked by incubating 20 minutes with 0.1% Triton X-100 and 10% fetal bovine serum (Sigma) in PBS. Neurospheres were incubated in the same buffer with the primary antibodies indicated in the figures for 1 h at 37° C., and finished by four five-minute PBS washes. Then neurospheres were incubated with the secondary antibodies at appropriate concentrations in the same buffer and conditions, and finally stained with DAPI for half an hour and mounted embedding at 37° C. in 0.8% agarose-LGT prepared in PBS. Embedded neurospheres were applied as 200 microliters drops on pre-cooled large (2×3 cm) coverslips and stored at 4° C. in the dark until confocal analysis. • Adherent cells. […] The images were processed with Adobe Photoshop CS5 programs (Adobe Systems Incorporated) and ImageJ/FIJI (http://rsb.info.nih.gov/ij/) taking the same samples as a zero-signal reference without antibodies (auto-fluorescence control), or only with secondary antibodies. […]

In the case of `NC(=O)NO` [HU, Hydroxyurea], the “p53 phosphorylation at the Ser15 residue” value was “substantially increased”.
